These results are taken from ChEMBL document CHEMBL5728828, “Substituted carboxamides as inhibitors of WDR5 protein-protein binding” (2021).

The target of the test is WD repeat-containing protein 5 (Homo sapiens, UniProt P61964). Briefly: Surface Plasmon Resonance (SPR) Assay: Exemplary compounds of the application were dissolved in 100% DMSO at 10 mM, assayed fresh, and then stored at −20° C. for repeat studies and other experiments. Full length WDR5 with an N-terminal His tag and C-terminal AviTag (Avidity Inc.) was expressed in E. coli with coexpression of BirA to biotin label the protein in vivo. Purification was via Ni-NTA. …. It is filed as organism-based.

On to `CN1CCN(c2c(F)cc(-c3cc(CN4CCOCC4)ccc3F)cc2NC(=O)c2c[nH]c(=O)cc2C(F)(F)F)CC1`, for which the Kd is 0.017 µM.
